## Apparent affinities of Ab-14 variants for a coronavirus HR2 peptide

Reference: Li et al. 2023, doi:10.1038/s41467-023-39022-2. File: FLAb, binding data.

Target: peptide PDVDLGDISGINAS, taken from heptad repeat 2 (HR2) of SARS-CoV-2 spike.

Parent: Ab-14, a human scFv built as VH, three GGGGS repeats, VL. Only the CDRs of the light chain vary.
VH: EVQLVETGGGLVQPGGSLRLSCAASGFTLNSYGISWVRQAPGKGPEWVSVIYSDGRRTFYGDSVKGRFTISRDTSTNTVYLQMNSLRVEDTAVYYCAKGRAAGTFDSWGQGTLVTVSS
VL: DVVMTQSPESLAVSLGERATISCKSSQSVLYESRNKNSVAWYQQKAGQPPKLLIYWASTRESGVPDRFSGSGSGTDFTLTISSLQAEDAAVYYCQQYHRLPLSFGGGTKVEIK

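The starting antibody came from a phage panning campaign against this peptide. The variants were designed computationally from a first round of random CDR variants and then made and measured. Their group label is 14L_En_Gen (En: ensemble of fine-tuned language models; Gen: genetic algorithm). Affinity was read by AlphaSeq, a pooled yeast mating assay with surface-displayed partners. Binding brings cells together so that they mate, and sequencing counts the barcode pairs among the diploids. Each replicate has its own calibration line, from reference interactions of the BCL2 family. Mating was done six times.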

The parent's light chain CDRs are KSSQSVLYESRNKNSVA, WASTRES, QQYHRLPLS; each variant's own CDRs replace them letter for letter. Values are log10 of the apparent Kd in nM; lower means stronger binding. Where no diploid with the target was found in that replicate, the entry reads "n.d.": below detection, most likely a poor binder, though not proof of it.

CDR-L1	CDR-L2	CDR-L3	log10 Kd (nM) by replicate	empty controls
KIGMTLNQLMHKKNNVA	DLVERET	QQYFRLPLS	0.67 / 0.71 / 0.86 / 0.44 / 0.53 / 0.44	1 of 18 (2.63)
KIGATLNMLEHKQNNVA	DLVTREN	QQYFRLPLS	0.17 / -0.37 / 0.09 / -0.18 / 0.17 / 0.69	1 of 18 (0.83)
MVYEATMMGGTARNSIA	NAQMRPD	QQYHRLPLI	0.41 / 0.40 / 0.17 / 0.59 / 0.02 / 0.54	0 of 18
MISQLYNMGSFAINSVA	QASQRNE	QQYDRLPLI	n.d. / n.d. / 1.99 / 2.13 / n.d. / n.d.	0 of 18
MISNVMNTLTRYGNNVA	DLENRED	QQYFRLPLS	1.51 / 0.64 / 1.02 / 0.74 / 1.68 / 1.48	0 of 18
KIGMTLNQLMHQKNNVA	DLVTREN	QQYHRLPLS	0.50 / 0.69 / 0.65 / 0.35 / 0.18 / 0.55	1 of 18 (2.34)
MISQLWNMGTFAINSVA	QAEIRNA	QQYDRLPLA	0.49 / 1.89 / 1.96 / n.d. / n.d. / n.d.	0 of 18
IVSQLMLWGMHVKNSIA	EAETRIN	QQYERLPLF	n.d. / 2.50 / n.d. / n.d. / n.d. / 2.07	1 of 18 (1.62)
TIGSTLMYGQRNRSNVA	EVSERLN	QQYDRLPLL	1.23 / 1.88 / 1.02 / 1.86 / 1.59 / 1.27	0 of 18
HMSMLTLQGMRQRNSVA	QMTTREN	QQYDHLPLA	0.03 / 2.09 / 0.92 / 1.04 / 3.09 / 1.59	0 of 18
KLYDMSALTVTNIRNVA	DNSTREQ	QQYHRLPLS	1.47 / 1.11 / 0.85 / 1.18 / 0.78 / 0.85	1 of 18 (1.76)
KVSGFMRGLMERKDSIA	DNETRNS	QQYDRLPLS	1.62 / 2.14 / 0.86 / 1.96 / 1.43 / 1.71	1 of 18 (2.20)
MVNGIMDHLSKNTNNVA	ETTTREK	QQYDRLPLV	1.23 / 0.82 / 1.00 / 0.85 / 0.92 / 0.93	0 of 18
SLGLVTMLEYAGRNNVA	NNSTRED	QQYDRLPLS	1.51 / n.d. / n.d. / n.d. / n.d. / n.d.	0 of 18
KISQMQRVGSTHHNSIA	EEATRAK	QQYHRLPLA	n.d. / n.d. / n.d. / n.d. / n.d. / n.d.	0 of 18
SLGLATMLEEYVRNSVA	NNSTREV	QQYDRLPLS	n.d. / n.d. / n.d. / n.d. / n.d. / n.d.	0 of 18
SLGLATMLEEYVRNSVA	NNSTRED	QQYDRLPLS	n.d. / 1.62 / n.d. / n.d. / 3.10 / n.d.	1 of 18 (2.51)
KVSEFMRGMMRQKNSIA	DNNTRGS	QQYDRLPLS	1.53 / 2.54 / 1.61 / 2.37 / 1.25 / 1.68	1 of 18 (1.92)
MISQLMNMGQFAINSVA	QATIRNS	QQYDRLPLV	1.27 / 1.49 / 0.29 / 0.45 / 1.45 / 0.94	0 of 18
KVSGFMRGLMMRKDSIA	DNETRNS	QQYDRLPLS	1.64 / 1.22 / 0.98 / 1.01 / 1.04 / 1.43	1 of 18 (2.80)
KVMGVNGVAMSTHDSIA	QEETRLE	QQYHRLPLS	1.50 / 1.38 / 1.17 / 1.62 / 1.28 / 1.27	1 of 18 (2.61)
MISQLYNMGQFAINSVA	QASIRND	QQYDRLPLV	0.78 / 0.35 / 0.49 / 0.71 / 0.33 / 0.84	0 of 18
HLSMLTHVEMGTKNNVA	QMETREE	QQYDRLPLS	0.15 / 0.09 / -0.03 / 0.16 / -0.03 / 0.12	2 of 18 (2.36)
KFSQAVNSMSVSKSAVA	EMSTRPE	QQYNRLPLA	n.d. / n.d. / n.d. / n.d. / n.d. / n.d.	0 of 18
KITATMRFEQKNSNNIA	EVTTRSK	QQYYRLPIS	0.35 / 0.46 / 0.33 / 0.45 / 0.45 / 0.45	0 of 18
QIYQAMHTLMQQKNNVA	DVTNRTK	QQYNRLPLS	1.32 / 0.93 / 1.18 / 1.42 / 0.66 / 0.90	0 of 18
IVSQLMLWGLHAKNSIA	EAEMRTN	QQYERLPLF	-0.21 / -0.41 / -0.54 / -0.36 / -0.78 / -0.15	0 of 18
QIYQAMHTLSQMKDNVA	DVNERGT	QQYHRLPLS	0.29 / 0.18 / 0.10 / 0.11 / 0.01 / 0.16	2 of 18 (2.11)
TISQMTSLFSQSINNVA	EVSTREP	QQYDRLPLA	0.14 / 0.24 / -0.08 / 0.09 / 0.07 / 0.32	0 of 18
TITGVMQQMSHSKNNVA	EVSTRLE	QQYFRLPLE	0.39 / 0.54 / 0.47 / 0.09 / 0.54 / 0.62	0 of 18
KIGMTLNTLLHKKNNVA	DLVEREN	QQYFRLPLS	0.43 / 0.44 / -0.05 / 0.10 / 0.10 / 0.50	1 of 18 (3.56)
KIGMTLNTLYEKKNNVA	DLVMREM	QQYHRLPLS	0.99 / 0.38 / 0.95 / 0.71 / 0.37 / 0.40	0 of 18
MIHESYGNMVMKKNSIA	DNTTREN	QQYDRLPLS	2.04 / 2.54 / 2.67 / 2.63 / 2.16 / 2.26	2 of 18 (2.99)
KIGHTLNTLYEKANNVA	DLVTREN	QQYYRLPLS	0.56 / 0.63 / 0.98 / 0.28 / 0.99 / 0.99	1 of 18 (2.83)
KISGLSNHQSSVHNNVA	ENVTRVQ	QQYFRLPLS	0.79 / 0.72 / 0.26 / 0.49 / 0.67 / 0.40	0 of 18
HMSMLTLQGQRHKNSVA	QMTTREN	QQYDHLPLS	1.30 / 1.09 / 1.23 / 1.22 / 1.00 / 1.04	1 of 18 (2.10)
IVSQLMIWGMHLKNSIA	EAQTRVN	QQYDRLPLM	n.d. / n.d. / 3.14 / n.d. / n.d. / n.d.	0 of 18
MISQLMNAGQFAINSVA	QAEIRNN	QQYDRLPLA	n.d. / n.d. / 0.88 / 1.56 / 1.02 / 2.11	0 of 18
IVSQLMLWGMHVKNSIA	EAETRLN	QQYDRLPLF	2.61 / n.d. / 1.69 / 1.61 / n.d. / n.d.	0 of 18
MLGDVAFGLSRKENSVA	DNSTREN	QQYDRLPLS	1.51 / 1.74 / 2.42 / 2.12 / 1.28 / 2.17	2 of 18 (2.91)
MLSEVLHMLGVQKNSIA	DLVIRAN	QQYHRLPLF	n.d. / n.d. / n.d. / n.d. / n.d. / n.d.	0 of 18
TLSQMSGVESVKHNSVA	ENSTREK	QQYDRLPLT	2.21 / n.d. / 2.66 / n.d. / 2.36 / n.d.	1 of 18 (3.27)
TISELYNQAIGMRNNVA	NNQTRED	QQYARLPLS	n.d. / n.d. / n.d. / 0.95 / n.d. / 3.12	0 of 18
KLSGLMQSSKFAKDNVA	ENNTREQ	QQYDRLPLS	2.90 / 1.90 / 2.02 / 2.09 / 1.72 / 1.57	2 of 18 (3.70)
KLSMITGHMSTEKNNVA	EMVTREN	QQYNRLPLS	2.54 / 2.15 / 1.64 / n.d. / 0.75 / n.d.	0 of 18
MLSQMWAIGMKVKNSVA	QASMRFN	QQYDRLPLI	0.32 / 0.40 / 0.43 / 0.61 / 1.06 / 0.89	0 of 18
IIDQIMFHGNKSANSIA	QAEERVN	QQYYHLPLT	1.01 / 1.23 / 0.87 / 0.65 / 0.83 / 1.02	1 of 18 (3.12)
KISMLLNMTFETSNNVA	EMATREK	QQYNRLPLS	0.94 / 1.26 / 1.32 / 0.73 / 1.27 / 1.11	0 of 18
KLSGIMRLESKVSNSIA	EMTTRGS	QQYDRLPLS	1.96 / 1.61 / 1.23 / 1.07 / 1.58 / 1.72	0 of 18
MISQVLNSLTHTGNNVA	DLQERED	QQYFRLPLS	n.d. / n.d. / 1.57 / n.d. / 2.32 / n.d.	0 of 18
HMSALTLQGMRARNSVA	QMTTREN	QQYDRLPLS	1.29 / 0.95 / 0.74 / 1.27 / 1.15 / 0.86	0 of 18
TLSQMSGVEAVKHNSVA	ENSTREK	QQYDRLPLA	1.53 / 0.63 / 0.85 / 1.01 / 0.28 / 1.07	0 of 18

The first 7 entries again:

| CDR-L1 | CDR-L2 | CDR-L3 | log10 Kd (nM) by replicate | empty controls |
|---|---|---|---|---|
| KIGMTLNQLMHKKNNVA | DLVERET | QQYFRLPLS | 0.67 / 0.71 / 0.86 / 0.44 / 0.53 / 0.44 | 1 of 18 (2.63) |
| KIGATLNMLEHKQNNVA | DLVTREN | QQYFRLPLS | 0.17 / -0.37 / 0.09 / -0.18 / 0.17 / 0.69 | 1 of 18 (0.83) |
| MVYEATMMGGTARNSIA | NAQMRPD | QQYHRLPLI | 0.41 / 0.40 / 0.17 / 0.59 / 0.02 / 0.54 | 0 of 18 |
| MISQLYNMGSFAINSVA | QASQRNE | QQYDRLPLI | n.d. / n.d. / 1.99 / 2.13 / n.d. / n.d. | 0 of 18 |
| MISNVMNTLTRYGNNVA | DLENRED | QQYFRLPLS | 1.51 / 0.64 / 1.02 / 0.74 / 1.68 / 1.48 | 0 of 18 |
| KIGMTLNQLMHQKNNVA | DLVTREN | QQYHRLPLS | 0.50 / 0.69 / 0.65 / 0.35 / 0.18 / 0.55 | 1 of 18 (2.34) |
| MISQLWNMGTFAINSVA | QAEIRNA | QQYDRLPLA | 0.49 / 1.89 / 1.96 / n.d. / n.d. / n.d. | 0 of 18 |

Background: pairings of all light chain designs with three empty control strains gave a value in 4% of cases (median 2.64, 5th percentile 1.59). Values in that range, when seen in few replicates, are hard to tell from nonspecific mating. The control count says in how many pairings with the empty strains this scFv gave a signal, with their mean in brackets. The range of this assay differs from that of the first round, and the authors advise against merging the two. In the paper, a design with two or fewer of six values counts as a poor binder. The parent sequence was in this pool as ten entries: three were never detected, three once, and four in most replicates, with averages from 0.34 to 2.37.